Measurements as given in ChEMBL document CHEMBL4840326, “Discovery of an M-Substituted N-Cyclopropylmethyl-7α-phenyl-6,14-endoethanotetrahydronorthebaine as a Selective, Potent, and Orally Active κ-Opioid Receptor Agonist with an Improved Central Nervous System Safety Profile” (2021).
Activity calls are given as the source filed them. The rule behind the calls is not given here.

Protein sequences, listed by entry. Tags and fused reporters are not part of them. Lines headed by an entry give the natural chain unless they say otherwise; changes in a name come on top.
UniProt P41145: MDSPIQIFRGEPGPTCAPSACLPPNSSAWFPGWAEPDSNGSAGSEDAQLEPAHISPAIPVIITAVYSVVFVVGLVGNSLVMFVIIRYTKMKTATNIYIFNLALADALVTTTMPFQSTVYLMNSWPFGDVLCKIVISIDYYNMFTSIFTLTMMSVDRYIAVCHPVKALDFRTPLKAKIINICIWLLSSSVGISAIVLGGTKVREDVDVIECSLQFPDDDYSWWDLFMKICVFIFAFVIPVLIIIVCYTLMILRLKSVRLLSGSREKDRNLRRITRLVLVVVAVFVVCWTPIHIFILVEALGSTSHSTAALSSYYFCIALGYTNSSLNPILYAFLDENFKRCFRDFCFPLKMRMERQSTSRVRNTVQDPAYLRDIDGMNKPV

What was measured:
[1] = Selectivity ratio of Ki for displacement of [3H]DPDPE from rat delta opioid receptor expressed in CHO cell membrane to Ki for displacement of [3H]U69,593 from human kappa opioid receptor expressed in CHO cell membrane
[2] = Selectivity ratio of Ki for displacement of [3H]DAMGO from rat mu opioid receptor expressed in CHO cell membrane to Ki for displacement of [3H]U69,593 from human kappa opioid receptor expressed in CHO cell membrane
[3] = target: Kappa-type opioid receptor (Homo sapiens) (UniProt P41145); assay: Agonist activity at human kappa opioid receptor expressed in CHO cell membrane at 1 uM incubated for 1 hr by [35S]GTPgammaS binding based liquid scintillation counting method relative to control; settings: filed as agonist
Mus musculus [4] = assay: Induction of conditioned place aversion in mouse at 5 mg/kg, ip treated for 15 mins in the afternoon session of preconditioning phase by placing in preferred side for 30 mins followed by test phase after 24 hrs; settings: time 24.75 hrs
Mus musculus [5] = assay: Induction of conditioned place aversion in mouse at 0.1 to 3.4 mg/kg, ip treated for 3.5 hrs in the afternoon session of preconditioning phase by placing in preferred side for 30 mins followed by test phase after 24 hrs; settings: dose 0.1-3.4 mg/kg, time 28.0 hrs

Row | Structure (SMILES) | Ratio Ki [1] | Ratio Ki [2] | Emax [3] | Activity (Mus musculus [4]) | Activity (Mus musculus [5])
1 | COc1ccc2c3c1O[C@H]1[C@@]4(OC)CC[C@@]5(C[C@@H]4c4cccc(NCc6ccc(C(F)(F)F)cc6)c4)[C@@H](C2)N(CC2CC2)CC[C@]315 | > 98 | 31 | – | – | –
2 | COc1ccc2c3c1O[C@H]1[C@@]4(OC)CC[C@@]5(C[C@@H]4c4cccc(NCC(O)COc6cccc7[nH]c8ccccc8c67)c4)[C@@H](C2)N(CC2CC2)CC[C@]315 (some centres not stated) | 31.9 | 16 | – | – | –
3 | CN(C(=O)Cc1ccc(Cl)c(Cl)c1)[C@H]1CCCC[C@@H]1N1CCCC1 | > 820 | 229 | 234% | Active | –
4 | COc1ccc2c3c1O[C@H]1[C@@]4(OC)CC[C@@]5(C[C@@H]4c4cccc(NCc6ccc(OCC7CC7)cc6)c4)[C@@H](C2)N(CC2CC2)CC[C@]315 | > 50 | 1.8 | – | – | –
5 | COc1ccc(CNc2cccc([C@H]3C[C@@]45CC[C@]3(OC)[C@@H]3Oc6c(OC)ccc7c6[C@@]34CCN(CC3CC3)[C@@H]5C7)c2)cc1 | – | – | – | – | inactive
6 | COc1ccc2c3c1O[C@H]1[C@@]4(OC)CC[C@@]5(C[C@@H]4c4cccc(NCc6ccc(OC(F)(F)F)cc6)c4)[C@@H](C2)N(CC2CC2)CC[C@]315 | – | 0.6 | – | – | –
